Experimental data as given in PubChem BioAssay AID738 (SRMLSC, 2007).
Only a part is listed here, and it is no random draw. Some of these compounds have results that are not shown, active ones among them. The source made the active and inactive calls. No stated cut-off is given here; in the data, active means inhibition above about 30%; inactive means the rest.

Test: growth inhibition of yeast control strain, primary screen, counter-screen for post-Golgi transport modulator project (AID 738)
Conditions: efflux-deficient yeast background strain, growth absorbance A615, 16 h; at 10 µM; stronger effect = higher value

With CC(C)N1C(=O)CC2(CCN(CCOC(=O)C(O)(c3ccccc3)c3ccccc3)CC2)C1=O as the compound, how does the inhibition read?
The inhibition was inactive: 2.56%.

For O=C(OC1CN2CCC1CC2)C(CO)(c1ccccc1)c1ccccc1 (stereo not drawn), which inhibition is on record?
The inhibition was inactive: 2.25%.

For CN(C)c1cccc(C(=O)NCC2(N(C)C)CCCCC2)c1, which inhibition is on record?
The inhibition was inactive: -0.16%.
